# Assay results reported in ChEMBL document CHEMBL3997841, “Continued optimization of the M5 NAM ML375: Discovery of VU6008667, an M5 NAM with high CNS penetration and a desired short half-life in rat for addiction studies” (Bioorg Med Chem Lett, 2017).
# The chains behind the UniProt entries cited, without tags or fusion partners.
# UniProt P08912, whole entry: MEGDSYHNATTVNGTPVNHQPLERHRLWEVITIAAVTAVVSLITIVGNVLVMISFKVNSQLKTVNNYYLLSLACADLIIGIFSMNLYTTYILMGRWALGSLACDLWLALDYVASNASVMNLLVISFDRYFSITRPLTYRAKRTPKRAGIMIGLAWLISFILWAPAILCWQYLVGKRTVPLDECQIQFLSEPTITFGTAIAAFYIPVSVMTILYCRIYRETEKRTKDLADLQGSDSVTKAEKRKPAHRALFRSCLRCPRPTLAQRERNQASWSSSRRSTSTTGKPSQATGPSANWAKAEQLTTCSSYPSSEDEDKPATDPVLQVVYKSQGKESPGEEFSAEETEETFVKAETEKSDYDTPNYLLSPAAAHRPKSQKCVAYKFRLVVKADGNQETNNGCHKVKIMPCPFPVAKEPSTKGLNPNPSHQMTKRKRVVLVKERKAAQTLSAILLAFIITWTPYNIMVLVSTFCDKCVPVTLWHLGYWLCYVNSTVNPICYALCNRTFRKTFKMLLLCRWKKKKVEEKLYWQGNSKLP
# pIC50: −log10 of the molar value.
# Target: Muscarinic acetylcholine receptor M5 (Homo sapiens, UniProt P08912)
# Assay: Negative allosteric modulation of human M5 receptor expressed in CHO cells assessed as inhibition of acetyl choline-induced calcium mobilization preincubated for 150 secs followed by acetyl choline addition by Fluo-4-AM dye based fluorescence assay
# Format: functional, cell-based
# Conditions: read-out: IC50
# Method in brief: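 Intracellular calcium mobilization in CHO cells stably transfected with human M5 receptor, run in the presence of an ACh EC80 concentration; values are means of at least three independent determinations, each performed in triplicate.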
row,pIC50,Structure (SMILES)
1,5.88,CN(c1ccc([C@@]23c4ccccc4C(=O)N2CCN3C(=O)c2ccc(F)c(F)c2)cc1)C1CCC1
2,5.14,N#CC1CCCN(c2ccc([C@@]34c5ccccc5C(=O)N3CCN4C(=O)c3ccc(F)c(F)c3)cc2)C1 (stereo partly specified)
3,5.02,CCOC(=O)N1CCN(c2ccc([C@@]34c5ccccc5C(=O)N3CCN4C(=O)c3ccc(F)c(F)c3)cc2)CC1
4,5.40,CC1CCCN(c2ccc([C@@]34c5ccccc5C(=O)N3CCN4C(=O)c3ccc(F)c(F)c3)cc2)C1 (stereo partly specified)

# Same assay, conditions: read-out: pIC50 (converted)
row,IC50 [µM],Structure (SMILES)
1,1.29,CN(c1ccc([C@@]23c4ccccc4C(=O)N2CCN3C(=O)c2ccc(F)c(F)c2)cc1)C1CCC1
2,8.71,CCOC(=O)N1CCN(c2ccc([C@@]34c5ccccc5C(=O)N3CCN4C(=O)c3ccc(F)c(F)c3)cc2)CC1
